{"source": "ChEMBL document CHEMBL6127153", "about": "“Hybrids of Membrane-Translocating Antimicrobial Peptides Show Enhanced Activity through Membrane Permeabilization” (ACS Med Chem Lett, 2024)", "key": {"HEK293": {"tested_on": "HEK293", "assay": "Cytotoxicity against HEK293 cells assessed as effect on cell metabolic activity at 18.2 uM incubated for overnight by MTS assay", "type": "toxicity, cell-based", "settings": "human, hek293, 18.2 µM"}, "Bacillus subtilis [1]": {"tested_on": "Bacillus subtilis", "assay": "Antibacterial activity against Bacillus subtilis ATCC6051 assessed as inhibition of bacterial growth at 100 uM incubated for 3 hrs by radial diffusion assay", "type": "functional, organism-based"}, "Cell membrane [2]": {"tested_on": "Cell membrane", "assay": "Induction of membrane translocation in Escherichia coli spheroplasts assessed as increase in fluorescence intensity using FITC-labeled compound by confocal microscopy", "type": "subcellular"}, "Bacillus subtilis [3]": {"tested_on": "Bacillus subtilis", "assay": "Antibacterial activity against Bacillus subtilis ATCC6051 assessed as inhibition of bacterial growth incubated for 1 hr followed by TSB addition and measured after 18 to 24 hrs by microbroth dilution assay", "type": "functional", "settings": "time 19-25 hrs"}, "Cell membrane [4]": {"tested_on": "Cell membrane", "assay": "Induction of membrane permeabilization in Escherichia coli assessed as increase in fluorescence intensity at 2 uM by PI staining based fluorescence spectrophotometric analysis", "type": "subcellular"}, "Escherichia coli": {"tested_on": "Escherichia coli", "assay": "Antibacterial activity against Escherichia coli Top10 assessed as inhibition of bacterial growth at 100 uM incubated for 3 hrs by radial diffusion assay", "type": "functional, organism-based"}}, "note": "Activity calls are given as the source filed them. The rule behind the calls is not given here."}
{"smiles": "CC[C@H](C)[C@H](NC(=O)[C@H](CCCNC(=N)N)NC(=O)[C@@H](NC(=O)[C@H](CCCCN)NC(=O)[C@H](CCCCN)NC(=O)[C@H](CC(N)=O)NC(=O)[C@H](CC(=O)O)NC(=O)[C@H](CCCNC(=N)N)NC(=O)[C@H](C)N)[C@@H](C)O)C(=O)N[C@@H](Cc1c[nH]c2ccccc12)C(=O)N1CCC[C@H]1C(=O)N[C@@H](CCCNC(=N)N)C(=O)N[C@@H](Cc1cnc[nH]1)C(=O)N[C@@H](CC(C)C)C(=O)N[C@@H](CCC(N)=O)C(=O)N[C@@H](CC(C)C)C(=O)N[C@@H](C)C(=O)N[C@H](C(=O)N[C@@H](CCCNC(=N)N)C(=O)N[C@@H](CC(N)=O)C(=O)O)C(C)C", "values": [{"measurement": "Activity", "setting": "HEK293", "result": "Non-Toxic"}, {"measurement": "Activity", "setting": "Bacillus subtilis [1]", "result": "Active"}, {"measurement": "Activity", "setting": "Cell membrane [2]", "result": "Active"}, {"measurement": "MIC", "setting": "Bacillus subtilis [3]", "result": "> 18.2", "unit": "µM"}, {"measurement": "Activity", "setting": "Cell membrane [4]", "result": "Active"}, {"measurement": "Activity", "setting": "Escherichia coli", "result": "Active"}]}
